31 molecules from patent US20150368338A1 (Janssen / Centocor, published 2015) can be followed below.

Where a chain is given by its changes, count along the chain named.

B1: IFWM3328 (antibody, V domains shown)
VH: EVQLVQSGAEVKKPGESLKISCKGSGYSFTSYWIGWVRQMPGKGLEWMGIIDPSDSDTRYSPSFQGQVTISADKSISTAYLQWSSLKASDTAMYYCARHPGLNWAPDFDYWGQGTLVTVSS
VL: DIQMTQSPSSLSASVGDRVTITCRASQSINNLNWYQQKPGKAPKLLIYWASSLQSGVPSRFSGSGSGTDFTLTISSLQPEDFATYYCQQGYDTPFTFGQGTKVEIK
notes: VH IFWH591, VL IFWL1064; converted mAb; also called IFWB3063
B2: IFWM3329 (antibody, V domains shown)
VH: B1 VH
VL: DIQMTQSPSSLSASVGDRVTITCRASQSIRNNNLNWYQQKPGKAPKLLIHWASSLQSGVPSRFSGSGSGTDFTLTISSLQPEDFATYYCQQGYDTPFTFGQGTKVEIK
notes: VH IFWH591, VL IFWL1067; converted mAb; also called IFWB3064
B3: IFWM3353 (antibody, V domains shown)
VH: B1 VH with R59A
VL: DIQMTQSPSSLSASVGDRVTITCRASQSIDRALNWYQQKPGKAPKLLIYFASSLQSGVPSRFSGSGSGTDFTLTISSLQPEDFATYYCQQSFDFPLTFGQGTKVEIK
notes: VH IFWH624, VL IFWL1014; converted mAb; also called IFWB3088
B4: IFWM3334 (antibody, V domains shown)
VH: B1 VH
VL: B2 VL with N33S, H50Y, W51A, G92D, D94N, T95W, F97L
notes: VH IFWH591, VL IFWL1082; converted mAb; also called IFWB3069
B5: IFWM3348 (antibody, V domains shown)
VH: B1 VH with R59A
VL: B3 VL with D30G, R31G, A32F, F92Y, D93S, F94L, L96I
notes: VH IFWH624, VL IFWL1006; converted mAb; also called IFWB3083
B6: IFWM3333 (antibody, V domains shown)
VH: B1 VH
VL: B2 VL with R30D, H50Y, W51A, T95W, F97L
notes: VH IFWH591, VL IFWL1076; converted mAb; also called IFWB3068
B7: IFWM3338 (antibody, V domains shown)
VH: B1 VH
VL: B2 VL with N32T
notes: VH IFWH591, VL IFWL1091; converted mAb; also called IFWB3073
B8: IFWM3335 (antibody, V domains shown)
VH: B1 VH
VL: B1 VL with N31Y, W49G, G90S, Y91H, T93W, F95I
notes: VH IFWH591, VL IFWL1084; converted mAb; also called IFWB3070
B9: IFWM3357 (antibody, V domains shown)
VH: B1 VH with R59A
VL: B3 VL with D30S, R31E, A32Y, F92H, D93S, F94L, L96I
notes: VH IFWH624, VL IFWL1038; converted mAb; also called IFWB3092
B10: IFWM3349 (antibody, V domains shown)
VH: B1 VH with R59A
VL: B3 VL with D30G, R31K, A32S, F92Y
notes: VH IFWH624, VL IFWL1007; converted mAb; also called IFWB3084
B11: IFWM3360 (antibody, V domains shown)
VH: B1 VH with R59A
VL: B3 VL with R31G, S91A, F92Y
notes: VH IFWH624, VL IFWL1048; converted mAb; also called IFWB3095
B12: IFWM3350 (antibody, V domains shown)
VH: B1 VH with R59A
VL: B3 VL with R31D, A32F, F92H, D93T, F94L
notes: VH IFWH624, VL IFWL1009; converted mAb; also called IFWB3085
B13: IFWM3331 (antibody, V domains shown)
VH: B1 VH
VL: B2 VL with R30D, N32S, N33Y, H50Y, W51G, Y93W, T95W, F97L
notes: VH IFWH591, VL IFWL1073; converted mAb; also called IFWB3066
B14: IFWM3332 (antibody, V domains shown)
VH: B1 VH
VL: B2 VL with R30A, N32T, G92W, T95N, F97L
notes: VH IFWH591, VL IFWL1074; converted mAb; also called IFWB3067
B15: IFWM3352 (antibody, V domains shown)
VH: B1 VH with R59A
VL: B3 VL with D30N, R31N, A32F, D93N, F94L, L96I
notes: VH IFWH624, VL IFWL1013; converted mAb; also called IFWB3087
B16: IFWM3358 (antibody, V domains shown)
VH: B1 VH with R59A
VL: B3 VL with D30T, R31G, A32F, F50A, F92H
notes: VH IFWH624, VL IFWL1041; converted mAb; also called IFWB3093
B17: IFWM3354 (antibody, V domains shown)
VH: B1 VH with R59A
VL: B3 VL with D30T, R31S, A32S, F94L
notes: VH IFWH624, VL IFWL1017; converted mAb; also called IFWB3089
B18: IFWM3336 (antibody, V domains shown)
VH: B1 VH
VL: B2 VL with N33Y, H50Y, W51A, F97L
notes: VH IFWH591, VL IFWL1085; converted mAb; also called IFWB3071
B19: IFWM3339 (antibody, V domains shown)
VH: B1 VH
VL: B2 VL with R30A, N33D, G92D, T95W, F97L
notes: VH IFWH591, VL IFWL1093; converted mAb; also called IFWB3074
B20: IFWM3327 (antibody, V domains shown)
VH: B1 VH
VL: B2 VL with R30A
notes: VH IFWH591, VL IFWL1063; converted mAb; also called IFWB3062
B21: IFWM3351 (antibody, V domains shown)
VH: B1 VH with R59A
VL: B3 VL with R31G
notes: VH IFWH624, VL IFWL1010; converted mAb; also called IFWB3086
B22: IFWM3337 (antibody, V domains shown)
VH: B1 VH
VL: B2 VL with R30S, N32S, G92W, T95H, F97L
notes: VH IFWH591, VL IFWL1087; converted mAb; also called IFWB3072
B23: IFWM3364 (antibody, V domains shown)
VH: B1 VH with R59A
VL: B3 VL with D30R, R31N, A32S, Y49K, F50W, S91L, F92Y, F94W
notes: VH IFWH624, VL IFWL1060; converted mAb; also called IFWB3099
B24: IFWM3361 (antibody, V domains shown)
VH: B1 VH with R59A
VL: B3 VL with D30A, R31D, A32F, F92H, D93S
notes: VH IFWH624, VL IFWL1051; converted mAb; also called IFWB3096
B25: IFWM3379 (antibody, IgG1, V domains shown)
VH: B1 VH with N103A
VL: B3 VL with R31G, A32S, F92Y
notes: mAb; IgG1/kappa said of the parent and of selected mAbs; also called IFWB3114
B26: IFWM3382 (antibody, IgG1, V domains shown)
VH: B1 VH with N103A
VL: B3 VL with D30G, R31S, F92Y
notes: mAb; IgG1/kappa said of the parent and of selected mAbs; also called IFWB3117
B27: IFWM3387 (antibody, IgG1, V domains shown)
VH: B1 VH with N103A
VL: B3 VL with D30G, R31G, A32F, F92Y, D93S, F94L, L96I
notes: mAb; IgG1/kappa said of the parent and of selected mAbs; also called IFWB3122
B28: IFWM3388 (antibody, IgG1, V domains shown)
VH: B1 VH with N103A
VL: B3 VL with D30G, R31K, A32S, F92Y
notes: mAb; IgG1/kappa said of the parent and of selected mAbs; also called IFWB3123
B29: IFWM3386 (antibody, IgG1, V domains shown)
VH: B1 VH with N103A
VL: B3 VL with D30A, R31E, A32F, F92I
notes: mAb; IgG1/kappa said of the parent and of selected mAbs; also called IFWB3121
B30: IFWM3383 (antibody, IgG1, V domains shown)
VH: B1 VH with N103A
VL: B3 VL with D30S, R31K, A32F, F92N, D93T, F94L, L96F
notes: mAb; IgG1/kappa said of the parent and of selected mAbs; also called IFWB3118
B31: IFWM3381 (antibody, IgG1, V domains shown)
VH: B1 VH with N103A
VL: B3 VL with D30G, R31S, A32F, F92Y, D93S, F94I, L96I
notes: mAb; IgG1/kappa said of the parent and of selected mAbs; also called IFWB3116

One assay addresses T1, IFN-αB2 (human, UniProt P32881 24-189).
T1 construct: also called IFN-α8; IFN alpha B2
The assay can be described thus: ProteOn, one antigen concentration.
As for B1, the dissociation constant Kd worked out at 132 pM.

The molecule B2 yielded a Kd of 95 pM.

Molecule B3 displayed a dissociation constant Kd of 6 pM.

In the case of B4, binding was characterised by a dissociation constant (Kd) of 436 pM.

In turn, B5 yielded a dissociation constant (Kd) of 58 pM.

B6 registered a Kd of 137 pM.

B7 showed a Kd of 108 pM.

B8 returned a dissociation constant (Kd) of 111 pM.

Regarding B9, binding was characterised by a dissociation constant (Kd) of 8 pM.

In turn, B10 displayed a dissociation constant Kd of 8 pM.

For the molecule B11, the equilibrium dissociation constant (Kd) stood at 35 pM.

B12 gave a dissociation constant (Kd) of 33 pM.

B13: the dissociation constant (Kd) is 21 pM.

With B14, the equilibrium dissociation constant (Kd) is 55 pM.

As to B15, the affinity, expressed as Kd, was 48 pM.

As for B16, the dissociation constant Kd stood at 62 pM.

The molecule B17 displayed a Kd of 23 pM.

B18 had a Kd of 46 pM.

In the case of B19, binding was characterised by a dissociation constant (Kd) of 94 pM.

For the molecule B20, binding was characterised by a dissociation constant (Kd) of 60 pM.

As to B21, the Kd came to 10 pM.

Turning to B22, the dissociation constant Kd came out at 22 pM.

Regarding B23, the dissociation constant (Kd) worked out at 39 pM.

Turning to B24, the Kd is 48 pM.

Another assay addresses T2, IFN-αB2 (human, UniProt P32881 24-189).
T2 construct: Recombinant, HEK293; also called IFN-α8
The assay can be described thus: ProteOn SPR, cell supernatant.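 Further: each binding measurement used just a single antigen concentration.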
In turn, B25 came in with a Kd of 22 pM.

Regarding B26, the Kd came out at 27 pM.

B27 displayed a Kd of 36 pM.

B28 displayed an equilibrium dissociation constant (Kd) of 26 pM.

Regarding B29, the Kd amounted to 16 pM.

As to B30, the Kd stood at 33 pM.

In turn, B31 returned a Kd of 58 pM.
